According to US10168342B2, “Lipid probes and uses thereof” (THE SCRIPPS RESEARCH INSTITUTE, priority 2015, dated 2019):

Target: T1, AEA-DA lipid probe targets in Neuro2a cells (Mus musculus, UniProt Q02819)
T1 sequence (Q02819 26-459): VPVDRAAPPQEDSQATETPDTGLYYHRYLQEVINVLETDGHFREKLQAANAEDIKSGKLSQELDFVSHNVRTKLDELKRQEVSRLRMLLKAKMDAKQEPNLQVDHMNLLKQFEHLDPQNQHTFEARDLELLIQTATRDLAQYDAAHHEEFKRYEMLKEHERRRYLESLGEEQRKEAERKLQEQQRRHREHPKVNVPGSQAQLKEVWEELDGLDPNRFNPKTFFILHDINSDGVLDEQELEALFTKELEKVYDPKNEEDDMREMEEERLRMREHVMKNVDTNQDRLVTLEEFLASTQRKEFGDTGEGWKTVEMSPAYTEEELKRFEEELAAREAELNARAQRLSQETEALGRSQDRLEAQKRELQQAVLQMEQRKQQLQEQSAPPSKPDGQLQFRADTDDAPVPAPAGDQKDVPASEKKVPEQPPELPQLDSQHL
Conditions: FIG. 16I and Table 4

- interaction with NUCB1 protein: did not interact
SMILES: CC(C)c1cc(C(C)C)c(CC(=O)NS(=O)(=O)Oc2c(C(C)C)cccc2C(C)C)c(C(C)C)c1 [avasimibe, reference compound]
